Test [1] concerns the target Sodium channel protein type 9 subunit alpha (Homo sapiens, UniProt Q15858). Kind of test: Inhibition of human Nav1.7 expressed in HEK cells assessed as reduction in sodium current at -60 mV holding potential by PatchXpress platform based whole cell patch clamp electrophysiological assay. Also noted: species or system HEK293.
The target of test [2] is Sodium channel protein type 5 subunit alpha (Homo sapiens, UniProt Q14524). Kind of test: Inhibition of human Nav1.5 expressed in HEK cells assessed as reduction in sodium current at -60 mV holding potential by PatchXpress platform based whole cell patch clamp electrophysiological assay. On the set-up: species or system HEK293. Background: The patch-clamp technique gives a direct electrical read-out from membranes.

The chains behind the UniProt entries cited, without tags or fusion partners.
UniProt Q15858, whole entry: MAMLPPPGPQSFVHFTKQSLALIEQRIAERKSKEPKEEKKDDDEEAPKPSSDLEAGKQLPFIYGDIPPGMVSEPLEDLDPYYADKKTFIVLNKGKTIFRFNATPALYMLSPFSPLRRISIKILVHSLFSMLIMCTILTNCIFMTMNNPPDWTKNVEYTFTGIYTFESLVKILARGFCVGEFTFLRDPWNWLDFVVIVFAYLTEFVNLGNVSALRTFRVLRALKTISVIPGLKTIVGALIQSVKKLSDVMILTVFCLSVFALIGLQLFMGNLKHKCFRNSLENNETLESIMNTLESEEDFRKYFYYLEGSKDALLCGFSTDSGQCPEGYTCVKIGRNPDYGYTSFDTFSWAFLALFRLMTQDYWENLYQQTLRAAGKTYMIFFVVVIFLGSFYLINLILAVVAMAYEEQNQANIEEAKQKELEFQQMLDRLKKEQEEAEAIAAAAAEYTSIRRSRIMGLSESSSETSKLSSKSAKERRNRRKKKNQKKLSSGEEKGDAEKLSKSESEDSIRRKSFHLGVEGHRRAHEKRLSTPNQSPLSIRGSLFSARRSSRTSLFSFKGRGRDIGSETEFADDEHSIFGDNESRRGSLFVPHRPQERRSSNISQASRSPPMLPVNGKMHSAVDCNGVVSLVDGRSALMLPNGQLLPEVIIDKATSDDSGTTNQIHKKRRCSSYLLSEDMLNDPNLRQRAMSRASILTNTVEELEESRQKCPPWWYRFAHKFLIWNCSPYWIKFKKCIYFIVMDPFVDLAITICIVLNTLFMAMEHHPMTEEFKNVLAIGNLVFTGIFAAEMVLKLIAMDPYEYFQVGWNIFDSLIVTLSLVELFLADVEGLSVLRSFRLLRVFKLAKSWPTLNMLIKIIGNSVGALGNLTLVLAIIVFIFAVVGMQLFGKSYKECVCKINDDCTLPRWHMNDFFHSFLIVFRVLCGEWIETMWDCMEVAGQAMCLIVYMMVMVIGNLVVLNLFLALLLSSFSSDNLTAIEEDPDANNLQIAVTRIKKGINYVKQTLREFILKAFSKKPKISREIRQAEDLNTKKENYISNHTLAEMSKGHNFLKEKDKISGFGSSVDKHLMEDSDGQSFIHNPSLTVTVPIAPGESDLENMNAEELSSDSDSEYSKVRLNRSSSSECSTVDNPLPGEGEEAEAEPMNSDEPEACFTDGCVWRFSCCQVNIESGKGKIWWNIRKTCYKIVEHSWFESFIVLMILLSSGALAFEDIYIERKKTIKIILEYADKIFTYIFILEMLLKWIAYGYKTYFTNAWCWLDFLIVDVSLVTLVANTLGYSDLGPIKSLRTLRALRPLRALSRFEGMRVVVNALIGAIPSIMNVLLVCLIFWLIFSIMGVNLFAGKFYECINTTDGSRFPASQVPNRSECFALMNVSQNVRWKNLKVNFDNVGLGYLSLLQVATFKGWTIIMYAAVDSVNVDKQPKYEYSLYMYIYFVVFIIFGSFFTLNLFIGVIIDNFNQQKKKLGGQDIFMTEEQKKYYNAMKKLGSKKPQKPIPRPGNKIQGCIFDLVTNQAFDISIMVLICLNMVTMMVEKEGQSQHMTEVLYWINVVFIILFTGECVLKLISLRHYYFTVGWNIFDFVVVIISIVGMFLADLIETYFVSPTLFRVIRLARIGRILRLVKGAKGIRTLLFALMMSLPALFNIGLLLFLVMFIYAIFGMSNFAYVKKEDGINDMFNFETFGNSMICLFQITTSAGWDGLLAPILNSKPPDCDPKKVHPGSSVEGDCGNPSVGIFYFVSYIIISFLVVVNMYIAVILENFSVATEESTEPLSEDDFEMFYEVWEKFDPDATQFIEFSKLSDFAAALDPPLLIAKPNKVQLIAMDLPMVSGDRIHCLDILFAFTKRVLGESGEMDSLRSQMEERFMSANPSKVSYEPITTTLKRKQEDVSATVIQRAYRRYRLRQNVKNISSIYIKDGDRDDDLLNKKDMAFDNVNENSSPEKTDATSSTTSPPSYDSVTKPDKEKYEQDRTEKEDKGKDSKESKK
UniProt Q14524, whole entry: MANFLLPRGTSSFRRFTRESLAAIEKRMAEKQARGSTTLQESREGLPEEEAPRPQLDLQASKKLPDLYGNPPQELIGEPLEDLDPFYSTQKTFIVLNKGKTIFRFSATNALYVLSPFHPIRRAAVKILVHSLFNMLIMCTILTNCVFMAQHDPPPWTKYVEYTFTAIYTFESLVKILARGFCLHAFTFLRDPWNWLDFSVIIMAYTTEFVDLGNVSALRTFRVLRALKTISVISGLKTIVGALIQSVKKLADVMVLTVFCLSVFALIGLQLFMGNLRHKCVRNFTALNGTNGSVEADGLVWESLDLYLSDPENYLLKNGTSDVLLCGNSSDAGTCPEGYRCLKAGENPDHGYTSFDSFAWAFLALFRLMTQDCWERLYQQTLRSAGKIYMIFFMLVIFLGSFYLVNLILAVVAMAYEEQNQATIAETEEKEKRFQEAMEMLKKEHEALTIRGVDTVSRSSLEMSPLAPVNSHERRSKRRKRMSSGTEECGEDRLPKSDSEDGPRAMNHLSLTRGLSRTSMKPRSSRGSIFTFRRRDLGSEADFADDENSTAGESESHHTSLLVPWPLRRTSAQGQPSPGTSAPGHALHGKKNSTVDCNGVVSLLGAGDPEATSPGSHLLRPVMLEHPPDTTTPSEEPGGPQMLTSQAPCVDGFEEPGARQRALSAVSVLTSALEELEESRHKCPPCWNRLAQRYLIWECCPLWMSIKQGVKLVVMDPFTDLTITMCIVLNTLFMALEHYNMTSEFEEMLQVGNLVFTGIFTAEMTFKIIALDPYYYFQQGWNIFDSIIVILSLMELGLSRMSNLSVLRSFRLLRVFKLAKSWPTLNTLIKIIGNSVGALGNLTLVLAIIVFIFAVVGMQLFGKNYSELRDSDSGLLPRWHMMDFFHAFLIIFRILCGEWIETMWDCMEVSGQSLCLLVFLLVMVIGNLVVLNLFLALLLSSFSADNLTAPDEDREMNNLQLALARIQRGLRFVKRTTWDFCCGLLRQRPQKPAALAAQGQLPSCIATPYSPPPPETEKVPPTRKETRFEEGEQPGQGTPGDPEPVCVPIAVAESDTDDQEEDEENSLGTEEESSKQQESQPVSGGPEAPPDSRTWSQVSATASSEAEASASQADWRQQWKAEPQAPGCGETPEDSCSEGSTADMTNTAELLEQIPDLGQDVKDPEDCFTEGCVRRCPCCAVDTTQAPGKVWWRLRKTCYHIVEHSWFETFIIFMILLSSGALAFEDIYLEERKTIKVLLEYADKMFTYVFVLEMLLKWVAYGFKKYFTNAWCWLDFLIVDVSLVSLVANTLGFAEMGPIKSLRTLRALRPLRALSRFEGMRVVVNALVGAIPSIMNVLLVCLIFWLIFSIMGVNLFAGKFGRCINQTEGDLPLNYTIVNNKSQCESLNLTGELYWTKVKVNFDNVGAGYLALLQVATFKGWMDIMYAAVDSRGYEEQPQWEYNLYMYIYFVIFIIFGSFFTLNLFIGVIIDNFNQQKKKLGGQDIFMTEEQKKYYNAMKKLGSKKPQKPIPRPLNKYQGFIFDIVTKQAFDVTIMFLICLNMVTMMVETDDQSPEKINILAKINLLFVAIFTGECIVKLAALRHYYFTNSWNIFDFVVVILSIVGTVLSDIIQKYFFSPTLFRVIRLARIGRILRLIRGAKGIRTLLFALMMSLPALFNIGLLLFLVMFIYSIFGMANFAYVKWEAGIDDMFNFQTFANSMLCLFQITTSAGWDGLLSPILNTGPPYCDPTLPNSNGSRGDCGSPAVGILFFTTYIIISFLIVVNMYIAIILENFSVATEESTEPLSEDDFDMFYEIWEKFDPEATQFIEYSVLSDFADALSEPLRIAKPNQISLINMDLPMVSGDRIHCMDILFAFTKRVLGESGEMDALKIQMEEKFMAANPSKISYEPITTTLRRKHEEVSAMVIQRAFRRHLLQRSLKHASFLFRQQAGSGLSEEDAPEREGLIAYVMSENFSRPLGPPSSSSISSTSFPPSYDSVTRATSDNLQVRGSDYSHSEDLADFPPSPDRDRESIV

The structures appear in SMILES notation.

For `O=S(=O)(Nc1ncc(Cl)s1)c1cc(F)c(OC[C@@H]2CNCC[C@H]2c2ccc(Cl)cc2)cc1F` (relative stereo), the IC50 in test [1] was 0.023 µM.
Regarding `O=S(=O)(Nc1ncns1)c1cc(F)c(OC[C@@H]2CNCC[C@H]2c2ccc(Cl)cc2)cc1F` (racemic), the IC50 in test [2] is above 10 µM.
With `O=S(=O)(Nc1ncc(F)cn1)c1cc(F)c(OC[C@H]2CNCC[C@@H]2c2ccc(Cl)cc2)cc1F`, in test [1], the IC50 amounted to 0.011 µM.
Consider `O=S(=O)(Nc1ncns1)c1cc(F)c(OC[C@@H]2CNCC[C@H]2c2ccc(Cl)cc2)cc1F`, for which the IC50 in test [2] (hek293) was above 10 µM.
Turning to `O=S(=O)(Nc1ccncn1)c1cc(F)c(OC[C@@H]2CNCC[C@H]2c2ccc(Cl)cc2)cc1F` (relative stereo), the IC50 in test [1] was found to be 0.033 µM.
As for `O=S(=O)(Nc1ncns1)c1cc(F)c(OC[C@H]2CNCC[C@@H]2c2ccc(Cl)c(F)c2)cc1F` (relative stereo), the IC50 in test [1] came out at 0.0009 µM.
For the molecule `O=S(=O)(Nc1ncns1)c1cc(F)c(OC[C@H]2CNCC[C@@H]2c2ccc(F)c(F)c2)cc1F` (relative stereo), the IC50 in test [1] was determined as 0.0026 µM.

Usually IC50 stands for the concentration needed to halve the response being measured.

The values above are taken from ChEMBL document CHEMBL3352194, “The discovery of benzenesulfonamide-based potent and selective inhibitors of voltage-gated sodium channel Na(v)1.7” (Bioorg Med Chem Lett, 2014).
